This is an account of results in PubChem BioAssay (NCI).

The entries are a selection whose mix differs from that of the whole data set. The source holds several records for some structures; these can differ, active in one and inactive in another. Activity calls are given as the source filed them. No stated cut-off is given here; in the data, active means growth inhibition above about 70%; inactive means the rest.

Assay [1] is described as follows: NCI Yeast Anticancer Drug Screen. Data for the rad50 strain (AID 155).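 Further: 0% = growth of vehicle-only cultures of the same strain.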 The note with it: S. cerevisiae rad50 strain growth inhibition, hits give high values.
Assay [2] is described as follows: NCI Yeast Anticancer Drug Screen. Data for the mec2-1 strain (AID 157). The note with it: S. cerevisiae mec2-1 strain, hits give high values.
Assay [3] in a line: NCI Yeast Anticancer Drug Screen. Data for the sgs1 mgt1 strain (AID 161).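 Further: 0% = growth of cultures given vehicle only.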 The settings on record: S. cerevisiae sgs1 mgt1 strain, hits give high values.
A short description of assay [4]: NCI Yeast Anticancer Drug Screen. Data for the cln2 rad14 strain (AID 165).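 Further: 0% = growth equal to vehicle treated cultures.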 The note with it: S. cerevisiae cln2 rad14 strain, hits give high values.
Assay [5] in a line: NCI Yeast Anticancer Drug Screen. Data for the bub3 strain (AID 167). The settings on record: S. cerevisiae bub3 mutant strain, hits give high values.
Assay [6] is described as follows: NCI Yeast Anticancer Drug Screen. Data for the mlh1 rad18 strain (AID 175). The settings on record: S. cerevisiae mlh1 rad18 strain growth inhibition, hits give high values.
[7] abbreviates: at 5.0 µM (retest, dose inferred, filed as 0.5).
[8] abbreviates: at 50.0 µM (retest, dose inferred, filed as 5.0).

In the case of `Cc1ccc(N(CCCl)CCCl)cc1`, the growth inhibition in assay [1] (at 50.0 µM) was inactive: -0.15%; in assay [2] (at 50.0 µM), inactive: -10.2%; in assay [3] (at 50.0 µM), inactive: -13.7%; in assay [4] (at 50.0 µM), inactive: -15.9%; in assay [5] (at 50.0 µM) it was inactive: -10.6%; in assay [6] (at 50.0 µM) it was inactive: -37.5%.

For the compound `NC1CCCCC1.NP(=O)(O)N(CCCl)CCCl`, the growth inhibition was inactive: 2% in assay [1] (setting [7]); inactive: 16% in assay [1] (setting [8]); active: 75% in assay [1] (at 50.0 µM); inactive: 10% in assay [2] (setting [7]); inactive: 21% in assay [2] (setting [8]); inactive: -13.2% in assay [2] (at 50.0 µM). The growth inhibition in assay [3] (setting [7]) is inactive: -7%; in assay [3] (setting [8]) it was inactive: 14%; in assay [3] (at 50.0 µM), inactive: 43.3%; in assay [4] (setting [7]) it was inactive: -20%; in assay [4] (setting [8]), inactive: -9%; in assay [4] (at 50.0 µM), inactive: 15.9%. The growth inhibition was inactive: 8% in assay [5] (setting [7]); inactive: -1% in assay [5] (setting [8]); inactive: 47.2% in assay [5] (at 50.0 µM); inactive: 2% in assay [6] (setting [7]); inactive: 14% in assay [6] (setting [8]); inactive: 7.75% in assay [6] (at 50.0 µM).

On to `O=Cc1ccc(N(CCCl)CCCl)cc1`, for which the growth inhibition in assay [1] (setting [7]) was inactive: 13%; in assay [1] (setting [8]), inactive: 47%; in assay [1] (at 50.0 µM) it was active: 81%; in assay [2] (setting [7]), inactive: 5%; in assay [2] (setting [8]) it was inactive: 18%; in assay [2] (at 50.0 µM), inactive: 47.8%. Moreover, the growth inhibition is inactive: 7% in assay [3] (setting [7]); inactive: 28% in assay [3] (setting [8]); inactive: 37.1% in assay [3] (at 50.0 µM); inactive: 3% in assay [4] (setting [7]); inactive: 54% in assay [4] (setting [8]); active: 81.2% in assay [4] (at 50.0 µM). The growth inhibition is inactive: 3% in assay [5] (setting [7]); inactive: 3% in assay [5] (setting [8]); inactive: 18.2% in assay [5] (at 50.0 µM); inactive: 15% in assay [6] (setting [7]); inactive: 57% in assay [6] (setting [8]); inactive: 48.2% in assay [6] (at 50.0 µM).

`Cc1ccc(C[N+](C)(CCCl)CCCl)c([N+](=O)[O-])c1`: the growth inhibition was inactive: 9% in assay [1] (setting [7]); active: 86% in assay [1] (setting [8]); active: 81.8% in assay [1] (at 50.0 µM); inactive: -2% in assay [2] (setting [7]); active: 81% in assay [2] (setting [8]); active: 78% in assay [2] (at 50.0 µM). Further, the growth inhibition in assay [3] (setting [7]) is inactive: 3%; in assay [3] (setting [8]), inactive: 54%; in assay [3] (at 50.0 µM) it was inactive: 59.4%; in assay [4] (setting [7]) it was inactive: 23%; in assay [4] (setting [8]), active: 82%; in assay [4] (at 50.0 µM) it was active: 79%. The growth inhibition in assay [5] (setting [7]) is inactive: 9%; in assay [5] (setting [8]) it was inactive: 60%; in assay [5] (at 50.0 µM), inactive: 15.1%; in assay [6] (setting [7]), inactive: 33%; in assay [6] (setting [8]), active: 92%; in assay [6] (at 50.0 µM), active: 81.7%.

With `CC(=O)c1ccc(N2CCC(OC(=O)C(O)(c3ccccc3)c3ccccc3)CC2)cc1`, the growth inhibition in assay [1] (at 50.0 µM) is inactive: 40.5%; in assay [2] (at 50.0 µM) it was inactive: 43.4%; in assay [3] (at 50.0 µM), inactive: 45.2%; in assay [4] (at 50.0 µM) it was inactive: 46.4%; in assay [5] (at 50.0 µM) it was inactive: 33.2%; in assay [6] (at 50.0 µM), inactive: 48.9%.

`CCOC(=O)N1CCC(=O)CC1`: the growth inhibition was inactive: 2.1% in assay [1] (at 50.0 µM); inactive: -9.25% in assay [2] (at 50.0 µM); inactive: 8.95% in assay [3] (at 50.0 µM); inactive: 4.45% in assay [4] (at 50.0 µM); inactive: 7.8% in assay [5] (at 50.0 µM); inactive: 17.4% in assay [6] (at 50.0 µM).

As to `Nc1c(Cl)cc(CN(CCCl)CCCl)cc1Cl`, the growth inhibition in assay [1] (at 50.0 µM) was inactive: 3.8%; in assay [2] (at 50.0 µM), inactive: -14.6%; in assay [3] (at 50.0 µM) it was inactive: -0.9%; in assay [4] (at 50.0 µM), inactive: -2.3%; in assay [5] (at 50.0 µM), inactive: -7.7%; in assay [6] (at 50.0 µM), inactive: 13.5%.

On to `Nc1cc(N)cc(N(CCCl)CCCl)c1`, for which the growth inhibition was inactive: 34.4% in assay [1] (at 50.0 µM); inactive: 10.1% in assay [2] (at 50.0 µM); inactive: 31.6% in assay [3] (at 50.0 µM); inactive: 31.1% in assay [4] (at 50.0 µM); inactive: 6.9% in assay [5] (at 50.0 µM); inactive: 42.9% in assay [6] (at 50.0 µM).

For `ClCCSC(SCCCl)=C(SCCCl)SCCCl`, the growth inhibition in assay [1] (at 50.0 µM) is inactive: 17.1%; in assay [2] (at 50.0 µM), inactive: 18.6%; in assay [3] (at 50.0 µM), inactive: 4.85%; in assay [4] (at 50.0 µM) it was inactive: -15.2%; in assay [5] (at 50.0 µM), inactive: -0.45%; in assay [6] (at 50.0 µM), inactive: 20.6%.

Turning to `c1ccc(CN2CCC(Nc3ccccc3)CC2)cc1`, the growth inhibition in assay [1] (at 50.0 µM) was inactive: 44%; in assay [2] (at 50.0 µM), inactive: 36.5%; in assay [3] (at 50.0 µM), inactive: 60%; in assay [4] (at 50.0 µM), inactive: 51.5%; in assay [5] (at 50.0 µM), inactive: 53.8%; in assay [6] (at 50.0 µM), inactive: 44%.

On to `NS(=O)(=O)c1ccc(N(CCCl)CCCl)cc1`, for which the growth inhibition in assay [1] (at 50.0 µM) was inactive: 13.8%; in assay [2] (at 50.0 µM), inactive: 8.75%; in assay [3] (at 50.0 µM) it was inactive: 17.4%; in assay [4] (at 50.0 µM), inactive: 13.3%; in assay [5] (at 50.0 µM), inactive: 10.7%; in assay [6] (at 50.0 µM), inactive: 5.6%.

Regarding `Cc1cc(N(CCCl)CCCl)ccc1C=C(C#N)C#N`, the growth inhibition is inactive: -24.9% in assay [1] (at 50.0 µM); inactive: -12.9% in assay [2] (at 50.0 µM); inactive: -13.2% in assay [3] (at 50.0 µM); inactive: -50% in assay [4] (at 50.0 µM); inactive: 18.1% in assay [5] (at 50.0 µM); inactive: -6.25% in assay [6] (at 50.0 µM).

`Cc1cccc(NC2(C#N)CCN(Cc3ccccc3)CC2)c1`: the growth inhibition is inactive: 18.7% in assay [1] (at 50.0 µM); inactive: -32.9% in assay [2] (at 50.0 µM); inactive: 11.8% in assay [3] (at 50.0 µM); inactive: 43.5% in assay [4] (at 50.0 µM); inactive: 3% in assay [5] (at 50.0 µM); inactive: 7.1% in assay [6] (at 50.0 µM).

Take `O=c1[nH]c2ccccc2n1C1CCN(Cc2ccccc2)CC1`: the growth inhibition is inactive: -7.3% in assay [1] (at 50.0 µM); inactive: -30.2% in assay [2] (at 50.0 µM); inactive: 0.75% in assay [3] (at 50.0 µM); inactive: 14.7% in assay [4] (at 50.0 µM); inactive: -4.35% in assay [5] (at 50.0 µM); inactive: -1.1% in assay [6] (at 50.0 µM).

As for `C[N+](CCCl)(CCCl)Cc1cccc([N+](=O)[O-])c1`, the growth inhibition in assay [1] (at 50.0 µM) was inactive: -46%; in assay [2] (at 50.0 µM), inactive: -56.5%; in assay [3] (at 50.0 µM), inactive: -32%; in assay [4] (at 50.0 µM), inactive: -3.75%; in assay [5] (at 50.0 µM), inactive: -18.2%; in assay [6] (at 50.0 µM) it was inactive: -18.8%.

On to `COc1cccc(N(CCCl)CCCl)c1`, for which the growth inhibition in assay [1] (at 50.0 µM) is inactive: 44.4%; in assay [2] (at 50.0 µM), inactive: 12.7%; in assay [3] (at 50.0 µM), inactive: 21.8%; in assay [4] (at 50.0 µM), inactive: 8.15%; in assay [5] (at 50.0 µM) it was inactive: 18.3%; in assay [6] (at 50.0 µM), inactive: 19.4%.

As for `BrCCN(CCBr)c1ccccc1`, the growth inhibition is inactive: 4.75% in assay [1] (at 50.0 µM); inactive: -6.5% in assay [2] (at 50.0 µM); inactive: 6.3% in assay [3] (at 50.0 µM); inactive: 11% in assay [4] (at 50.0 µM); inactive: -2.85% in assay [5] (at 50.0 µM); inactive: 18.1% in assay [6] (at 50.0 µM).

Take `COc1ccccc1N(CCCl)CCCl`: the growth inhibition in assay [1] (at 50.0 µM) is inactive: 10.8%; in assay [2] (at 50.0 µM) it was inactive: -6.4%; in assay [3] (at 50.0 µM), inactive: -2.75%; in assay [4] (at 50.0 µM), inactive: -9.05%; in assay [5] (at 50.0 µM), inactive: 1.9%; in assay [6] (at 50.0 µM), inactive: 0%.

As for `CCNC(=O)Cc1ccc(N(CCCl)CCCl)cc1`, the growth inhibition in assay [1] (at 50.0 µM) is inactive: -6.25%; in assay [2] (at 50.0 µM) it was inactive: -7.65%; in assay [3] (at 50.0 µM), inactive: -5.9%; in assay [4] (at 50.0 µM), inactive: 3.65%; in assay [5] (at 50.0 µM) it was inactive: 1.45%; in assay [6] (at 50.0 µM) it was inactive: 5.35%.

`N#CC1(Nc2ccccc2)CCN(Cc2ccccc2)CC1`: the growth inhibition is inactive: -10.5% in assay [1] (at 50.0 µM); inactive: -1.65% in assay [2] (at 50.0 µM); inactive: 1.35% in assay [3] (at 50.0 µM); inactive: 9.45% in assay [4] (at 50.0 µM); inactive: -3.35% in assay [5] (at 50.0 µM); inactive: 3.5% in assay [6] (at 50.0 µM).
